The results in this text go back to US11427783B2, “Perfuming compositions” (Firmenich SA, priority 2016, dated 2022).

A short description of the data set: physchem.

Regarding `CC/C=C\CC/C=C/C=O` [(2E,6Z)-2,6-NONADIENAL″, (2E,6Z)-2,6-NONADIENAL], the logP (commonly the decadic logarithm of the partition coefficient of the neutral form, usually between octanol and water) was determined as 2.56.

In turn, `CCCCC/C=C/CCC=O` [(E)-4-DECENAL] showed a logP of 3.73.
